These results are taken from article PMC11528023, “Transport mechanism and structural pharmacology of human urate transporter URAT1” (Cell Research, 2024).

Protein sequences, listed by entry. Tags and fused reporters are not part of them. Chains listed by the source or under a name are the forms on record and can include a tag or linker.
UniProt Q96S37, with tags, fused parts or gaps with the stated changes: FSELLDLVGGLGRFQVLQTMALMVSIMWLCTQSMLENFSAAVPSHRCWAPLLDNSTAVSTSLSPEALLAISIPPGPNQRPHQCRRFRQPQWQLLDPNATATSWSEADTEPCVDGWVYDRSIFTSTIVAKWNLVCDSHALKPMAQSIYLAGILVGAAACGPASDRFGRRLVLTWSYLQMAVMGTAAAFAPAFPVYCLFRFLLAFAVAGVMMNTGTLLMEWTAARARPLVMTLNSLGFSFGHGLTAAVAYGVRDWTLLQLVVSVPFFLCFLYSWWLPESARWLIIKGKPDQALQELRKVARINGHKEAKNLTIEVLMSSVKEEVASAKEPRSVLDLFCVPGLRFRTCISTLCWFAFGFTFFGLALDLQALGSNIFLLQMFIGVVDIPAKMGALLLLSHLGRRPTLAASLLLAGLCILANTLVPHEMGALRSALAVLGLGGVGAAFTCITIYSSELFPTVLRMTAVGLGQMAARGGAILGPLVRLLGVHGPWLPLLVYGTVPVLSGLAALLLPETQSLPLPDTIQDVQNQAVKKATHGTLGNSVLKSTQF

Type in all cases: cell-based
The target of assay [1] is T1, URAT1EM (Homo sapiens, UniProt Q96S37, A280P/A304R/A323S/A335R/D313K/DEL311-312/DEL60-62/G295A/G309E/G331A/G338L/G65T/I63V/INS307H/L287I/L292P/L321M/L328V/L337V/L341F/L64S/M324V/M330S/M343V/P317I/P333E/Q332K/R291K/R301K/R325K/R342C/S329A/T288I/T289K/T314N/T339D/W294Q/W300R).
T1 construct: human URAT1 (residues 3–553), a (GGGGS)3 linker, and C-terminal DARPinoff7; expressed in transfected cells; host or cells: HEK293 cells (ATCC, CRL-3216), transient transfection
Briefly: 14C-urate uptake in HEK293 cells expressing URAT1EM (cryo-EM construct).

Assay [2] has as its target T2, URAT1WT (Homo sapiens, UniProt Q96S37). Briefly: 14C-urate uptake inhibition in HEK293 cells expressing WT URAT1. The following applies: IC50 of the WT URAT1 (comparator for F365Y), inhibition of 14C-urate uptake, Fig. 5g comparator as printed in text.
In assay [3] the target is T2, URAT1WT. The assay is described as above. Also noted: expressed in transfected cells; host or cells: HEK293 cells (ATCC, CRL-3216), transient transfection with Lipofectamine 3000. The settings on record: inhibition of 14C-urate uptake, HEK293 cells, 400 µM urate, 20 min, 37 °C.

For `O=C(O)CSc1nnc(Br)n1-c1ccc(C2CC2)c2ccccc12` [lesinurad], the half-inhibitory concentration (IC50) in assay [1] is 39 µM; in assay [2], 39 µM; in assay [3], 66.3 µM.
